Test results as given in BindingDB's records for doi:10.1021/acsmedchemlett.3c00104 (Novartis Institutes for Biomedical Research, 2023).

By UniProt entry, the sequences of proteins in these tests, tags left out. Where a name states a change or a piece, a line headed by the entry shows the natural chain unless it says otherwise.
UniProt Q9Y4B6: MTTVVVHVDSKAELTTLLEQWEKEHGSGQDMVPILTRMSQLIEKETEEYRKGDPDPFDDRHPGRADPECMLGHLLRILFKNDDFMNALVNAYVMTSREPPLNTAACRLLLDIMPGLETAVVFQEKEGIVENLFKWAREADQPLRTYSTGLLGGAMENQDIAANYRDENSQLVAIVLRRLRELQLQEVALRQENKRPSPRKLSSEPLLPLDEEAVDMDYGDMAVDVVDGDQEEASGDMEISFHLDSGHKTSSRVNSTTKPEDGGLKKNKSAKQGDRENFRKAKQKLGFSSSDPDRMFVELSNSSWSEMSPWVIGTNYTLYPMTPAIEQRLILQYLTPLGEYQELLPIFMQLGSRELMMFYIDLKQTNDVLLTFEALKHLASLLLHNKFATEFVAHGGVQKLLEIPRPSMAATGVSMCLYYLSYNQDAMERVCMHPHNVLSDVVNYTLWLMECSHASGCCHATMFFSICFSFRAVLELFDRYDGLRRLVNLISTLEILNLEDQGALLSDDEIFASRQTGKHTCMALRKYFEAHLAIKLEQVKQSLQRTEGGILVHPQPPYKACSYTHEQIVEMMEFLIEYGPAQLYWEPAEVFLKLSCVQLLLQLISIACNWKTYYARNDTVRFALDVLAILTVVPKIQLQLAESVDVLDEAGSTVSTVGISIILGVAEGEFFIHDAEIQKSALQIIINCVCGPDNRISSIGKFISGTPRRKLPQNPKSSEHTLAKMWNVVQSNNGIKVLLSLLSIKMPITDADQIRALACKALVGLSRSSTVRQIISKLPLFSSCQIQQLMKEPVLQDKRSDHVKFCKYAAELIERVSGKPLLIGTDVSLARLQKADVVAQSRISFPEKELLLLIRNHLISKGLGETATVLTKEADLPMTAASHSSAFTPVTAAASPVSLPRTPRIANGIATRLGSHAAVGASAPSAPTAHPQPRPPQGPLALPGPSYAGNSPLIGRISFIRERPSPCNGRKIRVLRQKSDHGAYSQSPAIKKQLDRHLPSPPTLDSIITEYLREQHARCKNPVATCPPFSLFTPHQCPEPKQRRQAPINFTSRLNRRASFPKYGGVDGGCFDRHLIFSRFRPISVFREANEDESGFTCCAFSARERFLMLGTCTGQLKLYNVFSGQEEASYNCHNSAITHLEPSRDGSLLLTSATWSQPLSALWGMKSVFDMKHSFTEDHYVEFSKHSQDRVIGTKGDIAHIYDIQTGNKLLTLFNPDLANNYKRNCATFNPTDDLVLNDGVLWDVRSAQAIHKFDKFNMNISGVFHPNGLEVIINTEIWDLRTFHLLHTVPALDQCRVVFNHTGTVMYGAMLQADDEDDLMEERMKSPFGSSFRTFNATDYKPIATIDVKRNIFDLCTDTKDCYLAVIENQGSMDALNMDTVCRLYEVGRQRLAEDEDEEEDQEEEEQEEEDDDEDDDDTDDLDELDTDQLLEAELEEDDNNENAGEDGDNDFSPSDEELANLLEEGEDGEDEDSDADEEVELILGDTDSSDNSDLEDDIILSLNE

Key:
[1] = molecular target: T1, DDB1- and CUL4-associated factor 1 (Homo sapiens, UniProt Q9Y4B6); test: Binding affinity to Avi-tagged DCAF1 (1039 to 1401 residues) (unknown origin) expressed in baculovirus infected in Sf9 insect cells by NMR analysis
[2] = molecular target: T1, DDB1- and CUL4-associated factor 1; test: Binding affinity to Avi-tagged DCAF1 (1073 to 1399 residues) (unknown origin) expressed in baculovirus infected in Sf9 insect cells by SPR analysis

Fc1ccccc1C1=Cc2ccccc2C2=NCCN12 [5-(2-Fluoro-phenyl)-2,3-dihydro-imidazo[2,1-a]isoquinoline]
Kd [1]: > 500 µM | Kd [2]: > 100 µM
